{
  "sequences": {"note": "Protein sequences, listed by entry. Tags and fused reporters are not part of them.", "UniProt P35368, whole entry": "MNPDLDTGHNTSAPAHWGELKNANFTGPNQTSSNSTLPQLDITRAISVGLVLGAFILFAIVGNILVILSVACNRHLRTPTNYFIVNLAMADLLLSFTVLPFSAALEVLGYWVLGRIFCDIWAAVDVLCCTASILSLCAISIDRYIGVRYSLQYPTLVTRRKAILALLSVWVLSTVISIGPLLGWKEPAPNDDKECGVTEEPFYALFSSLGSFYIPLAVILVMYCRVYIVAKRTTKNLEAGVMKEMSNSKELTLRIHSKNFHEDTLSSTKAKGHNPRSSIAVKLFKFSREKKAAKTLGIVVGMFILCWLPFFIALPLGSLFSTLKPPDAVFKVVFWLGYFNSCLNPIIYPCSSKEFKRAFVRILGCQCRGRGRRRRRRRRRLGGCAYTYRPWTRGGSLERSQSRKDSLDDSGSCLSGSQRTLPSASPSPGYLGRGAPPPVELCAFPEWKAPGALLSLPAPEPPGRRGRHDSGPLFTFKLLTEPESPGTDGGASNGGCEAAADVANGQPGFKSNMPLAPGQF", "UniProt P21452, whole entry": "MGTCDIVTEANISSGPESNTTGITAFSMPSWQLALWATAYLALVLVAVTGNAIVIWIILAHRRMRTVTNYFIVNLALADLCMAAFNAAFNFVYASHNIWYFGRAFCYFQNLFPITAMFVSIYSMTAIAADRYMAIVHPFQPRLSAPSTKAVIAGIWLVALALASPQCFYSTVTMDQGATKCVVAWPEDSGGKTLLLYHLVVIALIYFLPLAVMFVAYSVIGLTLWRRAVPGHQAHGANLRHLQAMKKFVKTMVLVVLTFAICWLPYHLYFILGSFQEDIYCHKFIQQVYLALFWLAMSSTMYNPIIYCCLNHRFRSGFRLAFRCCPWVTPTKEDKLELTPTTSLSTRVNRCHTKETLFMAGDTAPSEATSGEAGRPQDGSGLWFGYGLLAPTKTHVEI"},
  "source": "patent US10335503B2",
  "about": "“Compound that specifically binds to AMPA receptor” (Public University Corporation Yokohama City University, priority 2015, dated 2019)",
  "settings_in_all_cases": "Positive substance, concentration not given",
  "key": {"α1A-Adrenergic": {"target": "T1, α1A-Adrenergic (Homo sapiens, UniProt P35348)", "T1 sequence (P35348 1-466)": "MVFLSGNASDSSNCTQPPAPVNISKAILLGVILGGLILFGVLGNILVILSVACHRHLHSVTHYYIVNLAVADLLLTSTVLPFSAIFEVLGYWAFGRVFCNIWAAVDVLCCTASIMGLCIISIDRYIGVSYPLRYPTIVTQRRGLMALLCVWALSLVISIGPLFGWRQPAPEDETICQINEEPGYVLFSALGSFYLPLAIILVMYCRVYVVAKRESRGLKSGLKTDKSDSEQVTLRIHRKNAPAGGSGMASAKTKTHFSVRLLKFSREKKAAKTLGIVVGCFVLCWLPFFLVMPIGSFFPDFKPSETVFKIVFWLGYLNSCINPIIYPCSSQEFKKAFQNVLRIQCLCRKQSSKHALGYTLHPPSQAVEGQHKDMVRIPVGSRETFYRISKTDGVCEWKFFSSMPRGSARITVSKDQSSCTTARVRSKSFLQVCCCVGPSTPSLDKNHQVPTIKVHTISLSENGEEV", "assay": "Receptor binding panel: α1A-Adrenergic"}, "α1B-Adrenergic": {"target": "α1B-Adrenergic (Homo sapiens, UniProt P35368)", "assay": "Receptor binding panel: α1B-Adrenergic"}, "Neurokinin NK2": {"target": "Neurokinin NK2 (Homo sapiens, UniProt P21452)", "assay": "Receptor binding panel: Neurokinin NK2"}},
  "data": [
    {"compound": "COc1cc2nc(N3CCN(C(=O)c4ccco4)CC3)nc(N)c2cc1OC", "note": "[Prazosin, reference compound]", "values": [
      {"measurement": "Inhibition (%)", "setting": "α1A-Adrenergic", "value": 100.00, "unit": "%"},
      {"measurement": "Inhibition (%)", "setting": "α1B-Adrenergic", "value": 100.00, "unit": "%"}
    ]},
    {"compound": "Neurokinin A [reference compound]", "values": [
      {"measurement": "Inhibition (%)", "setting": "Neurokinin NK2", "value": 100.00, "unit": "%"}
    ]}
  ]
}
